System: Escherichia coli
Conditions: ATCC 25922

GENTAMICIN
MIC: 0.5 µg/mL

— ChEMBL document CHEMBL1157014, “Synthesis, characterization and biological evaluation of some thiourea derivatives bearing benzothiazole moiety as potential antimicrobial and anticancer agents” (Eur J Med Chem, 2010)
